Tested on: MEC1 cells
Assay: Osteogenic differentiation of MEC1 cells, mineralized matrix by alizarin red S staining
Format: cell-based, mouse
Conditions: MEC1 cell cultures, BMP2 treatment (not shown)
Source text: The assays and associated methods and compositions are based in part on the observation that epicardial cells useable in connection with the present invention can be induced to undergo osteoblast differentiation by treatment with beta-glycerolphosphate and ascorbic acid (bGP+AA). […] The osteoblast differentiation genes AP, osterix, and BSP were induced by treatment (not shown). The outcome with primary mouse EPDCs (both embryonic and adult) was similar (FIG. 3); the extent of mineralization in induced primary cell cultures was less than with MEC1 cells, which might reflect the lesser density of cells (overt mineralization requires cells to aggregate into nodules, which is density dependent) or some heterogeneity in cellular phenotype. Despite the absence of mineralized matrix in the normal embryonic and postnatal heart, the conclusion from this analysis is that MEC1 cells and at least a prominent subset of mouse primary EPDCs are able to undergo osteoblast differentiation.

B1: BMP2: a bone-inducing factor that acts at least in part by inducing Runx2 (protein, UniProt P12643 283-396, looked up)
Bone morphogenetic protein 2: QAKHKQRKRLKSSCKRHPLYVDFSDVGWNDWIVAPPGYHAFYCHGECPFPLADHLNSTNHAIVQTLVNSVNSKIPKACCVPTELSAISMLYLDENEKVVLKNYQDMVVEGCGCR
  osteogenic differentiation: nor did BMP2 treatment induce osteogenic differentiation

— patent publication US20140154728A1, “COMPOSITIONS, SYSTEMS AND METHODS BASED ON THE DIFFERENTIATION OF EPICARDIAL CELLS TO TYPICAL AND ATYPICAL FATES” (UNIVERSITY OF SOUTHERN CALIFORNIA, priority 2012, published 2014)
